Tests used:
[1] = biological target: FAAH in human bladder epithelial cancer-derived cell line 5678 cells (Homo sapiens, UniProt O00519); assay: Screening for FAAH activity-inhibiting substance with human bladder epithelial cancer-derived cell (IC50, Table 64); assay type: cell-based; settings: read-out: cell FAAH IC50
Experimental: Screening for FAAH Activity-Inhibiting Substance with Human Bladder Epithelial Cancer-Derived Cell
(1) Screening for FAAH Activity-Inhibiting Substance:
Human bladder epithelial cancer-derived cell line […] cells (HTB-9; ATCC) were seeded on a 48-well cell culture plate in an amount of 1×10^5 cell/well, using 10% fetal bovine serum (HyClone)-containing RPMI1640 medium (Invitrogen). After incubated at 37° C. for at least 12 hours, the cells were washed with 400 μl/well of a buffer (Hank's Balanced Salt Solution, 20 mM Hepes-NaOH (pH 7.4)). A test substance dissolved in DMSO was added to a substrate solution (the above buffer containing 3 μCi/ml radiolabeled anandamide (Anandamide [ethanolamine 1-3H]) and 10 μM anandamide) so as to have a concentration of from 0.003 nM to 30 nM. As a control, DMSO alone was added. 100 μl/well of the substrate solution was added to the above cells, and incubated in a CO2 incubator at 37° C. for 30 minutes. Next, the cell culture plate was transferred onto ice, and the substrate solution was removed by suction; and 75 μl/well of a cytolytic solution (the above buffer containing 0.5% Triton X-100, and 10 μM of FAAH-inhibitory activity-having compound, 3′-carbamoylbiphenyl-3-yl cyclohexylcarbamate (URB597; Cayman chemical; Kathuria et al., Nature Med., Vol. 9, pp. 76-81, 2003)) was added thereto, followed by stirring. The resulting cell lysate in every well was individually transferred into a 1.5 ml sample tube, to which was added 150 μl of 1:1 (by volume) chloroform/methanol solution, followed by vortexing. This was centrifuged (15000 rpm, 2 minutes), whereby the decomposed product, ethanolamine (ethanolamine 1-^3H) was separated in the upper layer (water/methanol layer) and the unreacted radiolabeled anandamide was in the lower layer (chloroform layer). 25 μl of the upper layer was transferred into a 96-well organic solvent-resistant white microplate (PicoPlate-96; Perkin Elmer), 150 μl of Microscint-20 (Perkin Elmer) was added thereto, and this was measured with a microplate scintillation counter (TopCount™; Beckman). As compared with the control, the substance that gave a decreased value was selected as an FAAH activity-inhibiting substance.
(2) Measurement of IC50 Value of FAAH Activity-Inhibiting Substance:
A test compound dissolved in DMSO to have a concentration of 10 mM was dissolved in the substrate solution so as to have a varying concentration of from 0.003 nM to 30 μM. According to the method mentioned above, the compound was analyzed for its influence on FAAH activity. As a negative control, DMSO was used. As a positive control, URB597 was added to the substrate solution to have a concentration of 10 μM. Based on the measured value of the positive control, 0%, and on the measured value of the negative control, 100%, IC50 value of the test substance was obtained.

Sequences of proteins named here, by UniProt entry; tags and fusion partners are left off.
UniProt O00519, whole entry, looked up: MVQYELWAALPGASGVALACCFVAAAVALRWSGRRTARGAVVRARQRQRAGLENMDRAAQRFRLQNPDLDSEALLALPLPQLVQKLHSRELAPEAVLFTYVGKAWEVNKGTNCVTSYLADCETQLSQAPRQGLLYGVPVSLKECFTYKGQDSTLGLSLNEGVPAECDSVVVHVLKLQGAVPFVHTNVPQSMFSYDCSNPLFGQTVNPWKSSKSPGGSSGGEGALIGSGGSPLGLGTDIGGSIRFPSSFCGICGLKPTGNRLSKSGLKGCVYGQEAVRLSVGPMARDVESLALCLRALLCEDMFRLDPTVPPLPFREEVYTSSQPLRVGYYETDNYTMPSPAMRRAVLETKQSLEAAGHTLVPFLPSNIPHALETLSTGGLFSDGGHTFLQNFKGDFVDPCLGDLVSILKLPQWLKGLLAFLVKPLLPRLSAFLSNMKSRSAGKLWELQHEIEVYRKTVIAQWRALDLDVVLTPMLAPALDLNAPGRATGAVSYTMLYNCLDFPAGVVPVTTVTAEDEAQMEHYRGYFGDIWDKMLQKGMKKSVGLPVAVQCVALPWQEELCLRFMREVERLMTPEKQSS
UniProt P97612, whole entry, looked up: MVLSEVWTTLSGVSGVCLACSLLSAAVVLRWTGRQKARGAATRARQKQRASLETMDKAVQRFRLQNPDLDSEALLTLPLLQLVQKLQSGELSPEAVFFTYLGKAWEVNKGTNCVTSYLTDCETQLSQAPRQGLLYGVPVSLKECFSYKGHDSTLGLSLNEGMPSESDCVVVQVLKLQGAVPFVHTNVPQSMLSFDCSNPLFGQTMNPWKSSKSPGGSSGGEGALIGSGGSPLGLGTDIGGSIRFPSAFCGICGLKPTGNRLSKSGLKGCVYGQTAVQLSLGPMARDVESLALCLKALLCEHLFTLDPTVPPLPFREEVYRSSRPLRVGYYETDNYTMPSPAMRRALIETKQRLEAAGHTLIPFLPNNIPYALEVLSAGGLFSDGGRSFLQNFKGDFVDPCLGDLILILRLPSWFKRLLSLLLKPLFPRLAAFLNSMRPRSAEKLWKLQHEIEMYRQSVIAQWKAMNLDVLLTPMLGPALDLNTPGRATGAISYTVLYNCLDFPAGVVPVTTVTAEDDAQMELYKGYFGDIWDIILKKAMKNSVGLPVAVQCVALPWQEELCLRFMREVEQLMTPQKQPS

[2] = test system: CPA-induced urinary frequency in rat; assay: Effect of compound on cyclophosphamide (CPA)-induced urinary frequency in rat; assay type: in vivo; settings: oral administration, Wistar female rats 2 days after CPA 100 mg/kg i.p.
[3] = biological target: FAAH (rat brain homogenate) (Rattus norvegicus, UniProt P97612); settings: read-out: IC50 (FAAH activity), radiolabeled anandamide substrate, 1 hour
[4] = test system: L5/L6 spinal nerve-ligated rat; assay: Anti-allodynia effect in L5/L6 spinal nerve-ligated rat (neuropathic pain model), von Frey hair test; settings: 10 mg/kg oral administration, 60 minutes before response threshold measurement; operated paw 0%, non-operated paw 100% of the solvent group

Row | SMILES | IC50 [1] [nM] | further results
1 | N#Cc1ccccc1CCC1CCN(C(=O)Oc2cncc(C(N)=O)c2)CC1 | 0.085 | –
2 | O=C(O)c1cncc(OC(=O)N2CCC(CCCCc3ccccc3)CC2)c1 | 0.031 | –
3 | O=C(OCc1ccccc1)N1CCN(C(=O)Oc2cccnc2)CC1 | 0.093 | –
4 | O=C(Oc1cccnc1)N1CCC(c2cccc(OCc3ccccc3)c2)CC1 | 0.081 | –
5 | O=C(O)c1cncc(OC(=O)N2CCC(CCc3ccc(Cl)cc3)CC2)c1 | 0.36 | –
6 | NC(=O)c1cccc(CCC2CCN(C(=O)Oc3cncc(C(N)=O)c3)CC2)c1 | 0.5 | effective dose (increase of reduced effective bladder capacity) [2]: 1 mg/kg; IC50 [3]: 0.54 nM
7 | O=C(O)c1cncc(OC(=O)N2CCC(/C=C/c3ccccc3)CC2)c1 | – | effective dose (increase of reduced effective bladder capacity) [2]: 1 mg/kg; IC50 [3]: 0.65 nM
8 | O=C(Oc1cccnc1)N1CCC(COc2ccc3c(c2)OCO3)CC1 | 0.072 | –
9 | O=C(O)c1cncc(OC(=O)N2CCC(CCc3ccccc3)CC2)c1 | 0.89 | effective dose (increase of reduced effective bladder capacity) [2]: 1 mg/kg; IC50 [3]: 0.37 nM
10 | O=C(O)c1cncc(OC(=O)N2CCC(CCC3CCCCC3)CC2)c1 | 0.16 | –
11 | NC(=O)c1ccc(OCCC2CCN(C(=O)Oc3cccnc3)CC2)cc1 | 0.21 | –
12 | O=C(Oc1cccnc1)N1CCC(/C=C/c2ccccc2)CC1 | 0.15 | –
13 | O=C(Oc1cccnc1)N1CCC(COC/C=C/c2ccccc2)CC1 | 0.066 | –
14 | CNC(=O)c1ccc(OCCCC2CCN(C(=O)Oc3cccnc3)CC2)cc1 | 0.099 | –
15 | N#Cc1ccc(OCCCC2CCN(C(=O)Oc3cccnc3)CC2)cc1 | 0.052 | –
16 | O=C(c1ccccc1)C1CCN(C(=O)Oc2cccnc2)CC1 | 0.2 | –
17 | NC(=O)c1ccc(/C=C/C2CCN(C(=O)Oc3cccnc3)CC2)cc1 | 0.41 | –
18 | CCOC(=O)COc1cccc(C2CCN(C(=O)Oc3cccnc3)CC2)c1 | 0.071 | –
19 | O=C(Oc1cccnc1)N1CCN(CCc2ccccc2)CC1 | 0.18 | –
20 | O=C(Oc1cccnc1)N1CCN(c2ccc(OCc3ccccc3)cc2)CC1 | 0.046 | –
21 | NC(=O)COc1cccc(C2CCN(C(=O)Oc3cccnc3)CC2)c1 | 0.06 | –
22 | O=C(/C=C/c1ccccc1)N1CCN(C(=O)Oc2cccnc2)CC1 | 0.58 | anti-allodynia potency [4]: 74%
23 | N#Cc1cccc(CCC2CCN(C(=O)Oc3cncc(C(N)=O)c3)CC2)c1 | 0.062 | –

Row | SMILES | IC50 [1] [nM] | further results
24 | O=C(Oc1cccnc1)N1CCC(Oc2cccc(OCC3CCCCC3)c2)CC1 | 0.3 | –
25 | NC(=O)c1cncc(OC(=O)N2CCC(CCc3cccc(F)c3)CC2)c1 | 0.058 | –
26 | O=C(Oc1cccnc1)N1CCC(OCc2ccccc2)CC1 | 0.044 | –
27 | NC(=O)c1cncc(OC(=O)N2CCC(CCc3ccccc3F)CC2)c1 | 0.048 | –
28 | O=C(NCc1ccccc1)C1CCN(C(=O)Oc2cccnc2)CC1 | 0.13 | –
29 | O=C(Oc1cccnc1)N1CCN(c2ccccc2)CC1 | 0.04 | –
30 | O=C(Oc1cccnc1)N1CC=C(c2ccccc2)CC1 | 0.028 | –
31 | O=C(Oc1cccnc1)N1CCC(/C=C\c2ccccc2)CC1 | 0.081 | –
32 | O=C(NCCO)c1cncc(OC(=O)N2CCC(CCc3cccc(F)c3)CC2)c1 | 0.39 | –
33 | CC(=O)C1(c2ccccc2)CCN(C(=O)Oc2cccnc2)CC1 | 0.3 | –
34 | CN(C)C(=O)c1ccc(OCCCC2CCN(C(=O)Oc3cccnc3)CC2)cc1 | 0.26 | –
35 | NC(=O)c1ccccc1OCCCC1CCN(C(=O)Oc2cccnc2)CC1 | 0.052 | –
36 | O=C(Oc1cccnc1)N1CCC(Cc2ccccc2)CC1 | 0.1 | –
37 | O=C(NCCO)c1cncc(OC(=O)N2CCC(CCc3cccc(Cl)c3)CC2)c1 | 0.12 | –
38 | O=C(Oc1cccnc1)N1CCC(Oc2ccc3c(c2)OCO3)CC1 | 0.35 | –
39 | NC(=O)c1ccc(CCC2CCN(C(=O)Oc3cccnc3)CC2)cc1 | 0.12 | –
40 | O=C(Oc1cccnc1)N1CCN(CCCCCc2ccccc2)CC1 | 0.077 | –
41 | O=C(NCCCCc1ccccc1)C1CCN(C(=O)Oc2cccnc2)CC1 | 0.37 | –
42 | O=C(Oc1cccnc1)N1CCC(CCOCc2ccccc2)CC1 | 0.063 | –
43 | O=C(Oc1cccnc1)N1CCC(Oc2ccc(O)cc2)CC1 | 0.58 | –
44 | O=C(Oc1cccnc1)N1CCC(Oc2ccc(OCC3CCCCC3)cc2)CC1 | 0.67 | –
45 | O=C(O)c1cncc(OC(=O)N2CCC(CCc3ccccc3Cl)CC2)c1 | 0.43 | –
46 | O=C(Oc1cccnc1)N1CCC(COCc2ccccc2)CC1 | 0.012 | –

Row | SMILES | IC50 [1] [nM] | further results
47 | O=C(Oc1cncc(Cl)c1)N1CCN(CCc2ccccc2)CC1 | 0.44 | –
48 | NC(=O)c1ccc(COC2CCN(C(=O)Oc3cccnc3)CC2)cc1 | 0.41 | –
49 | NC(=O)c1ccc(OCCCC2CCN(C(=O)Oc3cccnc3)CC2)cc1 | 0.095 | –
50 | O=C(NCCc1ccccc1)C1CCN(C(=O)Oc2cccnc2)CC1 | 0.6 | –
51 | COc1cccc(CCC2CCN(C(=O)Oc3cncc(C(N)=O)c3)CC2)c1 | 0.04 | –
52 | O=C(Oc1cccnc1)N1CCC(Oc2ccccc2)CC1 | 0.23 | –
53 | O=C(NCCO)c1cncc(OC(=O)N2CCC(CCc3ccccc3)CC2)c1 | 0.24 | –
54 | O=C(Oc1cncc(Br)c1)N1CCC(CCc2ccccc2)CC1 | 0.17 | –
55 | O=C(Oc1cccnc1)N1CCC(c2ccc(F)cc2)CC1 | 0.033 | –
56 | COC(=O)c1cncc(OC(=O)N2CCC(CCC3CCCCC3)CC2)c1 | 0.48 | –
57 | NC(=O)c1cncc(OC(=O)N2CCC(CCc3ccccc3)CC2)c1 | 0.081 | –
58 | NC(=O)c1cncc(OC(=O)N2CCC(CCC3CCCCC3)CC2)c1 | 0.13 | –
59 | O=C(O)c1cncc(OC(=O)N2CCC(CCc3ccc(Br)cc3)CC2)c1 | 0.47 | –
60 | NC(=O)c1cccc(OCCCC2CCN(C(=O)Oc3cccnc3)CC2)c1 | 0.078 | –
61 | O=C(CCc1ccccc1)N1CCN(C(=O)Oc2cccnc2)CC1 | 0.35 | –
62 | O=C(CCCCCc1ccccc1)NC1CCN(C(=O)Oc2cccnc2)CC1 | 0.11 | –
63 | O=C(O)c1cncc(OC(=O)N2CCC(CCc3cccc(Cl)c3)CC2)c1 | 0.37 | –
64 | O=C(O)c1cncc(OC(=O)N2CCC(CCc3cccc(Br)c3)CC2)c1 | 0.65 | –
65 | O=C(NCCCO)c1cncc(OC(=O)N2CCC(CCc3ccccc3)CC2)c1 | 0.33 | –
66 | Cn1c(CCCC2CCN(C(=O)Oc3cccnc3)CC2)nc2ccccc21 | 0.057 | –
67 | O=C(Oc1cccnc1)N1CCC(O)(c2ccccc2)CC1 | 0.69 | –

Source: patent US7919495B2, “Pyridyl non-aromatic nitrogen-containing heterocyclic-1-carboxylate compound” (Astellas Pharma, Inc., priority 2005, dated 2011)
